Tested on: Alcaligenes denitrificans denitrificans (CR-1)
Assay: Degradation of 1,4-dibenz-oxazepine and its proposed degradation products by CR-1, measured by HPLC
Details: for % Degradation/24 hrs.: CR-1, per 24 hrs, T82MV, HPLC

Compound	observed degradation by CR-1 (in words)	% Degradation/24 hrs.
Cc1ccccc1O	except for o-cresol	0.0%
Cc1cccc(O)c1O	has been degraded using CR-1	21.0%
Oc1ccccc1O	observed degradation	3.4%

— patent US4965202A, “Biodegradation of 1,4-dibenz-oxazepine and related compounds” (dated 1990)
